According to article PMC2943425 (Journal of medicinal chemistry, 2010):

Target: human δ-opioid receptor (Homo sapiens, UniProt P41143)
Assay: Radioligand binding, [3H]DPDPE competition, HN9.10 cell membranes

With “Tyr^1-D-Ala^2-Gly^3-Phe^4-Met^5-Pro^6-Leu^7-Trp^8-O-[3′,5′-(CF3)2-Bzl] [TY005]” the “δ-selectivity of δ/μ opioid agonist lead compounds” value was “up to 25 fold”.
